The source of these data is patent US6849712B1, “Peptides with β1 integrin subunit dependent cell adhesion modulating activity” (Regents of the University of Minnesota, priority 1998, dated 2005).

Chains of the proteins cited; added tags and fusions are not shown. Residues count along the entry.
UniProt P08648, 895-1049 limits assumed: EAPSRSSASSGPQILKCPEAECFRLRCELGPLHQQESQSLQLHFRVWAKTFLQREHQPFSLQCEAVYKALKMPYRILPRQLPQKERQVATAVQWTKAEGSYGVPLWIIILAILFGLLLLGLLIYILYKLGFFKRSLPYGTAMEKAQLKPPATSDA
UniProt P08648, 42-894 limits assumed: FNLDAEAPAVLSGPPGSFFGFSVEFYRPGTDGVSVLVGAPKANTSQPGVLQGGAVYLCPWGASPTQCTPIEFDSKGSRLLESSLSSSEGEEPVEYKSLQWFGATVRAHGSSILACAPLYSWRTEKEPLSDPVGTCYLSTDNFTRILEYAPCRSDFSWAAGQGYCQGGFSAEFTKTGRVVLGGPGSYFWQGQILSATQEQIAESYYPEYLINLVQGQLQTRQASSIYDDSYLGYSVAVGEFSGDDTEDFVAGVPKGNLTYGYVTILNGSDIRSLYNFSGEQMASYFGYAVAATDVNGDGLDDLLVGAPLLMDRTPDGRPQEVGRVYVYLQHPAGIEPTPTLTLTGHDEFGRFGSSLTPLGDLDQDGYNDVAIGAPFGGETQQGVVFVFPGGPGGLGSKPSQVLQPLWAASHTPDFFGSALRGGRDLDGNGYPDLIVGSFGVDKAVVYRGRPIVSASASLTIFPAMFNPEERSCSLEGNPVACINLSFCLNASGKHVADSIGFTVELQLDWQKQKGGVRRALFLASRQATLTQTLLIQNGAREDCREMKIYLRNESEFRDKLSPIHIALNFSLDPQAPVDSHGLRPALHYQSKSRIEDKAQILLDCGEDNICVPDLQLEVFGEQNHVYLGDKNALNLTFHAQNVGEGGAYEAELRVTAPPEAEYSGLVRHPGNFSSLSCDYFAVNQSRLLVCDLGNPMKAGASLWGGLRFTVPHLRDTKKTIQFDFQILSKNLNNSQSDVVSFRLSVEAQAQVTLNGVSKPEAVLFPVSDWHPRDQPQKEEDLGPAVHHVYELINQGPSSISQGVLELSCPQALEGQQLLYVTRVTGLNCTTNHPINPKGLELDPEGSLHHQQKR
UniProt P13612, 34-1032: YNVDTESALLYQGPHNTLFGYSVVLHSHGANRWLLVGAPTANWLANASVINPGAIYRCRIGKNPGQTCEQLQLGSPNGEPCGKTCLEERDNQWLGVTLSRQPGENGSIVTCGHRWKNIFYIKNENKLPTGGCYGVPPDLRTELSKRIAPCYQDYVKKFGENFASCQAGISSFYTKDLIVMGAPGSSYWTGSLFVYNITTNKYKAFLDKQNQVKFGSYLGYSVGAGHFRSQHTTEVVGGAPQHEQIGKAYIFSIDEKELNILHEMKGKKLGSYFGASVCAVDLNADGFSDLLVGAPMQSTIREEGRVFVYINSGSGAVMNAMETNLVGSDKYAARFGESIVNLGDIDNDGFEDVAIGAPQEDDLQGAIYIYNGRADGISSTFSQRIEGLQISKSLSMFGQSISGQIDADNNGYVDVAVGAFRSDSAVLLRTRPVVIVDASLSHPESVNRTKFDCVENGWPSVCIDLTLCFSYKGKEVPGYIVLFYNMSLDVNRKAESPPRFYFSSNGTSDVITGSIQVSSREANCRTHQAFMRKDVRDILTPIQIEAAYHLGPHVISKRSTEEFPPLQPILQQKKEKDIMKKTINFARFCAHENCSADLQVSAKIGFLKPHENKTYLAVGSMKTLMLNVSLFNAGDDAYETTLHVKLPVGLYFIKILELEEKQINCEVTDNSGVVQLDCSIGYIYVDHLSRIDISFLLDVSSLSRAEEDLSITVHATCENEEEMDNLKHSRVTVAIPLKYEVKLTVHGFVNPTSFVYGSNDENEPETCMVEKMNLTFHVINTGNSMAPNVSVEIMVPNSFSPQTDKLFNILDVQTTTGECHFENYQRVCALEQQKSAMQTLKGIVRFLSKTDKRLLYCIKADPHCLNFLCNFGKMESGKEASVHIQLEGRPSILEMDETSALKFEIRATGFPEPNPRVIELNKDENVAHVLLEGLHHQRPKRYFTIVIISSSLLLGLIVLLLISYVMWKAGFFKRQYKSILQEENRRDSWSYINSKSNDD

One experiment has as its target T1, α5β1 integrin (Homo sapiens, UniProt P05556+P08648).
T1 construct: erythroleukemic cell line K562, which expresses α5β1 but not α4β1 integrin; endogenous in cells; host or cells: K562 cells
The experiment can be described thus: Inhibition of α5β1 integrin dependent Mn+2 stimulated adhesion of K562 cells to fibronectin (FN). Type of experiment: cell-based. As to the method: The cell adhesion assay was carried out as described above. […] Each data point represents the mean of triplicate determinations and the error bars represent the standard deviation of the mean. The solid black line represents adhesion to the negative control substrate, BSA.

In a further experiment the target is α4β1 integrin (Homo sapiens, UniProt P05556+P13612). The experiment can be described thus: Inhibition of α4β1 dependent adhesion of 8A2 stimulated Ramos cells to IIICS-GST. The experiment is classed as cell-based. Also noted: endogenous in cells; host or cells: Ramos cells. To be noted: Ramos cells activated with mAb 8A2, preincubated with peptide, result in words. An excerpt:
IIICS-GST is recombinantly produced fusion protein which contains a fragment from the type III CS region (“IIICS”) of plasma fibronectin fused to glutathione-S-transferase (“GST”). The fibronectin fragment corresponds to fibronectin amino acid residues 1961 to 2039 (sequence numbering for fibronectin as designated in U.S. Pat. No. 4,839,464) and includes the […] (SEQ ID NO:46) amino acid sequence (“CS1”; fibronectin residues 1961-1985). […] In the assay, a 96-well plate was coated with the substrate IIICS-GST. Ramos cells stimulated with the β1 activating monoclonal antibody 8A2 (“Ab 8A2”) were preincubated with one of the peptides to be evaluated for their ability to adhere to IIICS-GST. […]
A 96-well plate was coated in triplicate with […] of IIICS-GST diluted to […] in PBS containing 1 mM CaCl2, MgCl2 (“PBS/cations”) and incubated overnight at 37° C. […] Cells were counted and resuspended at 200,000 cells/ml. […]
The blocking solution was removed from the 96-well plate and the cell/peptide mixture is added at 100 μl/well (10,000 cells/well) and incubated for 30 minutes at 37° C. An aliquot of standard cells/peptide (100 μl) was placed at 37° C. for quantitating adhesion. […] The plate fluorescence was read at excitation 485 and emission 530. […] The experimental fluorescence readings were extrapolated from the standard curve to obtain percent adhesion.

Regarding `CC[C@H](C)[C@H](NC(=O)[C@@H](N)CCCNC(=N)N)C(=O)N[C@@H](Cc1ccc(O)cc1)C(=O)O` [RIY, Arg-Ile-Tyr], the “inhibition of K562 adhesion to FN at the maximal concentration tested” value at α5β1 integrin (0.84 mM peptide, K562 cells stimulated with 1 mM MnCl2) was “completely inhibited”. Besides, the IC50 at α5β1 integrin (K562 cells stimulated with 1 mM MnCl2, adhesion to FN, read-out: half-maximal inhibitory concentration) is around 200 µM. Moreover, on α4β1 integrin, the “inhibition of adhesion of 8A2 stimulated Ramos cells to IIICS-GST” value is listed as “comparable on an equimolar basis to that of Y-tagged FN C/H V”.
